Test results as given in patent publication US20250325793A1, “INTRACALVARIOSSEOUS DRUG ADMINISTRATION DEVICE FOR DELIVERING DRUG BY BYPASSING BLOOD-BRAIN BARRIER” (GACHON UNIVERSITY OF INDUSTRY-ACADEMIC COOPERATION …, priority 2023, published 2025).

Assay: Plasma, brain interstitial fluid (microdialysis) and whole-brain drug levels after intravenous (IV) and intracalvariosseous (ICO) administration

Compound: CCN(C)C(=O)Oc1cccc([C@H](C)N(C)C)c1.O=C(O)C(O)C(O)C(=O)O [RVG, rivastigmine i-tartrates]
- brain-to-plasma ratio (Kp), ICO administration group relative to IV administration group (at 24 hours after administration, fold higher in ICO (5 mg/kg) than IV (0.5 mg/kg)): 107.8 times
- AUCplasma of the ICO administration group compared with the IV administration group (rat plasma, up to 24 h, ICO 5 mg/kg vs IV 0.5 mg/kg): relatively lower
- Cbr (brain drug concentration), ICO administration group relative to IV administration group (whole brain at 24 hours after administration, fold higher in ICO (5 mg/kg) than IV (0.5 mg/kg)): 18.6 times
